Experimental data taken from patent publication USRE47689E1, “Compounds for treating spinal muscular atrophy” (PTC Therapeutics, Inc., priority 2011, dated 2019).

Experiments:
[1] = system: SMN2 minigene (full length SMN2 minigene mRNA containing SMN2 exon 7); assay: SMN2 minigene mRNA splicing RT-qPCR assay in cultured cells; type: cell-based; settings: Homo sapiens, HEK293-H, 24 h, read-out: EC1.5x for production of full length SMN2 mRNA
Experimental: The reverse transcription-quantitative PCR-based (RT-qPCR) assay is used to quantify the level of the full length SMN2 minigene mRNA containing SMN2 exon 7 in a HEK293H cell line stably transfected with said minigene and treated with a test compound.
Protocol. HEK293H cells stably transfected with the SMN2-A minigene construct described above (10,000 cells/well) are seeded in 200 μL of cell culture medium (DMEM plus 10% FBS, with 200 μg/mL hygromycin) in 96-well flat-bottom plates and the plate is immediately swirled to ensure proper dispersal of cells, forming an even monolayer of cells. Cells are allowed to attach for at least 4-6 hours. […] A solution of test compound (1 μL, 200× in DMSO) is added to each cell-containing well and the plate is incubated for 24 hours in a cell culture incubator (37° C., 5% CO2, 100% relative humidity). 2 replicates are prepared for each test compound concentration. The cells are then lysed in Cells-To-Ct lysis buffer and the lysate is stored at −80° C.
The combination of these three oligonucleotides detects only SMN1 or SMN2 minigenes (RT-qPCR) and will not detect endogenous SMN1 or SMN2 genes. […]
The amplification efficiency E is calculated from the slope of the amplification curve for SMN2mini FL and GAPDH individually. The abundances of SMN2mini FL and GAPDH are then calculated as […], where Ct is the threshold value for each amplicon. […]

Smn protein = Smn protein assay in cultured cells (SMN HTRF); type: cell-based, human; settings: SMA patient fibroblast cells, 48 hours, 7-point concentration data, fold increase relative to vehicle control (SMN HTRF)
Experimental: The SMN HTRF (homogeneous time resolved fluorescence) assay is used to quantify the level of Smn protein in SMA patient fibroblast cells treated with test compounds.
Protocol. Cells are thawed and cultured in DMEM-10% FBS for 72 hours. Cells are trypsinized, counted and resuspended to a concentration of 25,000 cells/mL in DMEM-10% FBS. […] 1 μL of test compound solution is transferred to cell-containing wells and cells are incubated for 48 hours in a cell culture incubator (37° C., 5% CO2, 100% relative humidity). Triplicate samples are set up for each test compound concentration. […] Fluorescence for each well of the plate at 665 nm and 620 nm is measured on an EnVision multilabel plate reader (Perkin-Elmer).
The normalized fluorescence signal is calculated for each sample, Blank and vehicle control well by dividing the signal at 665 nm by the signal at 620 nm. Normalizing the signal accounts for possible fluorescence quenching due to the matrix effect of the lysate. The ΔF value (a measurement of Smn protein abundance) for each sample well is calculated by subtracting the normalized average fluorescence for the Blank control wells from the normalized fluorescence for each sample well and then dividing this difference by the normalized average fluorescence for the Blank control wells. […]

O=C(Nc1ccccc1)c1cc2ccc(N3CCNCC3)cc2oc1=O [Cpd 3, 2-oxo-N-phenyl-7-(piperazin-1-yl)-2H-chromene-3-carboxamide trifluoroacetate]
EC (1.5-fold) [1]: 1 to 3 µM | maximum fold (Fold) increase of Smn protein (Smn protein): * (maximum fold increase of ≤1.2)

Counter-ions that a name gives are not always drawn.
